# In patent publication US20180325914A1, “INCREASING STORAGE OF VITAMIN A, VITAMIN D AND/OR LIPIDS” (Salk Institute for Biological Studies, priority 2014, published 2018):
# Tested on: primary HSCs
compound,measurement,value
"Cc1sc2c(c1C)C(c1ccc(Cl)cc1)=N[C@@H](CC(=O)OC(C)(C)C)c1nnc(C)n1-2 [JQ1, (S)-tert-butyl 2-(4-(4-chlorophenyl)-2,3,9-trimethyl-6H-thieno[3,2-f][1,2,4]triazolo[4,3-a][1,4]diazepin-6-yl)acetate]",1110003E01Rik log2(fold_change),0.49
same,1110067D22Rik log2(fold_change),−1.6197
same,1190002N15Rik log2(fold_change),2.603
same,1600014C10Rik log2(fold_change),0.6167
same,2310022B05Rik log2(fold_change),0.4879
same,3110003A17Rik log2(fold_change),−0.8881
same,4833442J19Rik log2(fold_change),−2.6935
same,4930583H14Rik log2(fold_change),−3.5597
same,6330406I15Rik log2(fold_change),−0.6004
same,9030617O03Rik log2(fold_change),−0.7896
same,9930013L23Rik log2(fold_change),−1.8225
same,A430110N23Rik log2(fold_change),−2.0761
same,AA467197 log2(fold_change),−4.4808
same,AI427809 log2(fold_change),−3.8454
same,AI597468 log2(fold_change),−0.7204
same,Aard log2(fold_change),3.152
same,Abat log2(fold_change),1.831
same,Acot11 log2(fold_change),−1.6812
same,Acpl2 log2(fold_change),−1.7436
same,Acta1 log2(fold_change),−3.5363
same,Actg2 log2(fold_change),−4.6695
same,Adam8 log2(fold_change),−1.8587
same,Adam12 log2(fold_change),−0.6779
same,Adam15 log2(fold_change),0.5692
same,Adamts5 log2(fold_change),2.155
same,Adamts12 log2(fold_change),−2.111
same,Adamtsl2 log2(fold_change),−3.4377
same,Adcy1 log2(fold_change),−2.5482
same,Adcy5 log2(fold_change),−2.5661
same,Adcy7 log2(fold_change),−2.1951
same,Adora2b log2(fold_change),−0.7993
same,Afap1l2 log2(fold_change),0.6954
same,Aga log2(fold_change),−0.681
same,Ahdc1 log2(fold_change),0.5362
same,Aif1l log2(fold_change),−2.2243
same,Ak3 log2(fold_change),−0.7666
same,Ak4 log2(fold_change),−3.0575
same,Akap5 log2(fold_change),−1.6481
same,Aldh1a1 log2(fold_change),2.982
same,Aldh1a2 log2(fold_change),−1.7827
same,Aldh1l1 log2(fold_change),−1.8083
same,Aldh1l2 log2(fold_change),−1.9695
same,Alox5ap log2(fold_change),−3.3781
same,Angpt4 log2(fold_change),−3.5318
same,Ankrd55 log2(fold_change),−1.8294
same,Anxa6 log2(fold_change),−0.6095
same,Aoc3 log2(fold_change),−2.7703
same,Apbb1ip log2(fold_change),−0.3793
same,Apbb1 log2(fold_change),−0.2271
same,Apln log2(fold_change),0.6313
same,Arhgap11a log2(fold_change),0.6696
same,Arhgef6 log2(fold_change),−2.5116
same,Arhgef10 log2(fold_change),−0.5271
same,Arhgef17 log2(fold_change),0.5644
same,Arhgef25 log2(fold_change),−0.3966
same,Arl5a log2(fold_change),−0.4698
same,Arsb log2(fold_change),−0.2842
same,Arxes2 log2(fold_change),1.545
same,Asf1b log2(fold_change),1.177
same,Ass1 log2(fold_change),−0.7372
same,Atoh8 log2(fold_change),1.079
same,Atp1a3 log2(fold_change),−2.7352
same,Atp8b2 log2(fold_change),−0.8035
same,Aurkb log2(fold_change),0.763
same,Avpr1a log2(fold_change),−1.7957
same,B3galnt1 log2(fold_change),−1.9475
same,B4galt2 log2(fold_change),−0.4322
same,BC018242 log2(fold_change),0.5904
same,BC031353 log2(fold_change),0.6117
same,BC046404 log2(fold_change),0.7414
same,Bag2 log2(fold_change),−1.5931
same,Bambi log2(fold_change),0.7735
same,Barx1 log2(fold_change),0.8268
same,Basp1 log2(fold_change),0.477
same,Bcat1 log2(fold_change),−3.7612
same,Bcmo1 log2(fold_change),0.9338
same,Bdnf log2(fold_change),−1.874
same,Bicc1 log2(fold_change),0.7762
same,Birc5 log2(fold_change),0.8496
same,Bnip3 log2(fold_change),−1.6903
same,Boc log2(fold_change),−0.5044
same,Bphl log2(fold_change),0.5126
same,Btg2 log2(fold_change),−0.6709
same,Bub1 log2(fold_change),0.8389
same,C1qtnf1 log2(fold_change),−0.6473
same,C1qtnf2 log2(fold_change),−3.7007
same,C1qtnf5 log2(fold_change),−3.0319
same,C1qtnf6 log2(fold_change),−0.6741
same,C330027C09Rik log2(fold_change),0.4526
same,Cacng7 log2(fold_change),−2.1628
same,Cadm4 log2(fold_change),0.6865
same,Casc4 log2(fold_change),0.8788
same,Casp12 log2(fold_change),−1.8685
same,Cav1 log2(fold_change),−0.748
same,Cbx5 log2(fold_change),0.4317
same,Ccbe1 log2(fold_change),−0.5091
same,Ccdc104 log2(fold_change),−0.5601
same,Ccdc109b log2(fold_change),−0.6411
same,Cck log2(fold_change),−6.933
same,Ccl12 log2(fold_change),−6.5143
same,Ccnb2 log2(fold_change),0.6449
same,Ccnd2 log2(fold_change),−0.5059
same,Ccnf log2(fold_change),0.7858
same,Ccng1 log2(fold_change),−0.4404
same,Cd248 log2(fold_change),1.021
same,Cd276 log2(fold_change),−1.8166
same,Cdc42bpa log2(fold_change),−0.8213
same,Cdc45 log2(fold_change),0.4758
same,Cdca3 log2(fold_change),0.7846
same,Cdca5 log2(fold_change),0.9051
same,Cdh3 log2(fold_change),−3.6022
same,Cdh6 log2(fold_change),−2.8188
same,Cdh11 log2(fold_change),−1.6934
same,Cdk1 log2(fold_change),0.6368
same,Cdkn2b log2(fold_change),−0.8634
same,Cdkn2c log2(fold_change),0.4351
same,Cdon log2(fold_change),0.8474
same,Celf2 log2(fold_change),−0.3778
same,Cend1 log2(fold_change),0.6977
same,Cenpe log2(fold_change),0.7813
same,Cenph log2(fold_change),0.7387
same,Cep55 log2(fold_change),0.863
same,Cercam log2(fold_change),−1.5652
same,Chaf1a log2(fold_change),0.7923
same,Chd3 log2(fold_change),−2.985
same,Chpf log2(fold_change),−0.2699
same,Chst11 log2(fold_change),−3.0832
same,Chst12 log2(fold_change),−0.5147
same,Chst14 log2(fold_change),−0.7675
same,Chsy3 log2(fold_change),−0.2788
same,Ckap2l log2(fold_change),0.4836
same,Ckap2 log2(fold_change),0.9355
same,Ckap4 log2(fold_change),−0.8382
same,Ckb log2(fold_change),0.5731
same,Cks1b log2(fold_change),0.6346
same,Clca1 log2(fold_change),0.964
same,Cnn1 log2(fold_change),−4.9341
same,Cnn2 log2(fold_change),−0.8993
same,Cnrip1 log2(fold_change),−0.3622
same,Col1a1 log2(fold_change),−1.6234
same,Col4a5 log2(fold_change),−0.457
same,Col5a1 log2(fold_change),−0.8039
same,Col5a2 log2(fold_change),−0.8766
same,Col6a1 log2(fold_change),−0.6543
same,Col6a2 log2(fold_change),−2.928
same,Col6a3 log2(fold_change),−3.296
same,Col7a1 log2(fold_change),−3.6642
same,Col8a1 log2(fold_change),−0.785
same,Col11a1 log2(fold_change),−3.7267
same,Col12a1 log2(fold_change),−2.2532
same,Col14a1 log2(fold_change),1.793
same,Col15a1 log2(fold_change),−5.116
same,Col16a1 log2(fold_change),−1.703
same,Colec11 log2(fold_change),0.6872
same,Copz2 log2(fold_change),−0.2374
same,Cpe log2(fold_change),−0.791
same,Cplx2 log2(fold_change),−2.4716
same,Cpt1c log2(fold_change),0.6903
same,Cpz log2(fold_change),−0.7891
same,Crispld2 log2(fold_change),−2.4734
same,Crlf1 log2(fold_change),−2.4669
same,Csdc2 log2(fold_change),−2.6599
same,Csrp1 log2(fold_change),−0.6997
same,Csrp2 log2(fold_change),−0.3485
same,Cthrc1 log2(fold_change),−5.0344
same,Ctnnbip1 log2(fold_change),0.48
same,Cul7 log2(fold_change),−0.3304
same,Cxx1c log2(fold_change),−0.3988
same,Cyb5r3 log2(fold_change),0.5722
same,Cygb log2(fold_change),−0.7185
same,Cyp1b1 log2(fold_change),0.4116
same,Cyp51 log2(fold_change),−0.6376
same,D2Ertd750e log2(fold_change),0.7447
same,D4Bwg0951e log2(fold_change),−0.2667
same,D430019H16Rik log2(fold_change),−2.685
same,Dact3 log2(fold_change),0.4719
same,Dag1 log2(fold_change),0.5373
same,Dcaf12l1 log2(fold_change),−0.7149
same,Dcbld2 log2(fold_change),0.5265
same,Dcxr log2(fold_change),0.5145
